# Source: patent publication US6331555A, “Treatment of platelet derived growth factor related disorders such as cancers” (priority 1999, dated 2001)
# Amino acid sequences for entries named in this document (tags omitted). Residues count along the entry.
# UniProt P09619, 33-1106: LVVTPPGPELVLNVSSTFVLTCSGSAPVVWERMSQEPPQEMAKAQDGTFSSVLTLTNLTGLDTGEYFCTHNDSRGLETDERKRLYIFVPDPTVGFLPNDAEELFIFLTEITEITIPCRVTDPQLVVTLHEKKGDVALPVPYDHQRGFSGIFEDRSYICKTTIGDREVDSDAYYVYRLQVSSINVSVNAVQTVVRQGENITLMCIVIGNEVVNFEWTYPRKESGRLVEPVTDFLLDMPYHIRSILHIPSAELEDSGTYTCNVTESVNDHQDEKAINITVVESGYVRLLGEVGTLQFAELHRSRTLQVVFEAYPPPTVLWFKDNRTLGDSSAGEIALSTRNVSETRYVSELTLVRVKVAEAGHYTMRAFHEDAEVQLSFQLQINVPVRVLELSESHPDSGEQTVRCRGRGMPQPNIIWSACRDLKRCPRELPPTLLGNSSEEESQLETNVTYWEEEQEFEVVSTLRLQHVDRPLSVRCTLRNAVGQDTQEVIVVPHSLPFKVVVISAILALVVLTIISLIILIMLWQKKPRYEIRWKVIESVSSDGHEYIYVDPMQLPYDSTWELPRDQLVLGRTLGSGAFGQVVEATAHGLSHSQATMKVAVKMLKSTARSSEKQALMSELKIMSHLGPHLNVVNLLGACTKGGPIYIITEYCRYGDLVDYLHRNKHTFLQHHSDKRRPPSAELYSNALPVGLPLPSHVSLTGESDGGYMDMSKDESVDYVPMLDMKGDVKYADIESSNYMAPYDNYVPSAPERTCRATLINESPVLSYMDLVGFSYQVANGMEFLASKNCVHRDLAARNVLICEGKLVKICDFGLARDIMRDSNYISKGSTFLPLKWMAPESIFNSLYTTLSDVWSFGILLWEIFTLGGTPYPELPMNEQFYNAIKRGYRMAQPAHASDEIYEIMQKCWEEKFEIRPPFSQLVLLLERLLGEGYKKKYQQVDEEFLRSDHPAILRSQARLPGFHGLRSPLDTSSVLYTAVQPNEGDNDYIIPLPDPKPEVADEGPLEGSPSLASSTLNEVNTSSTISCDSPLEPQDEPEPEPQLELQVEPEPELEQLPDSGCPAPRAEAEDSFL
# pIC50: −log10 of the molar value.
# Experiments:
# [1] = target: PDGFR (Homo sapiens, UniProt P09619); test: Receptor tyrosine kinase inhibition, PDGFR; format: cell-based; parameters: U1242 (PDGF-β receptor); host or cells: U1242 glioma cells (ELISA)
# Procedure: (§1) For western blotting, cells were plated in 2 mL growth medium into 6-well dishes (500,000 cells per well) and allowed to attach overnight. […] The plates were then incubated overnight at 37° C., ambient CO2. […] After a 7 min incubation at room temperature with ligand, the plates were put on ice and washed three times with 1 mL ice-cold PBS plus 1 mM orthovanadate. Lysis was achieved by pipetting cells in 0.5 mL of buffer containing 50 mM Tris, pH 7.4, 10% glycerol, 1% NP-40, 2 mM EDTA, 1 mM sodium vanadate (Na3 VO4), 10 mM pyrophosphate, 1 mM PMSF, […]. A 300 μL aliquot of each lysate was immediately added to 100 μL 4×Laemmli sample buffer ([…] Tris pH 6.9, 20% glycerol, 7% SDS, 5 mM EDTA, 5% β-mercaptoethanol) containing phosphatase inhibitors, 2 mM Na3 VO4 and 10 mM pyrophosphate. Samples were boiled for 5 min, frozen in dry ice-ethanol, and stored at -80° C. […] The integrity of the protein-to-membrane transfer was determined by staining with 1% Ponceau S in 5% acetic acid for 5 min. After destaining in several distilled water rinses, the membrane was soaked overnight in blocking buffer containing 5% milk in Tris-buffered saline, 0.05% Tween 20. Phosphotyresine was detected by incubating the membrane (1 hr at room temperature) with an anti-phosphotyosine antiserum diluted in blocking buffer at 1:3000. […]
# [2] = target: T1, PDGF-R (U1242) (Homo sapiens, UniProt P09619); test: U1242 kinase (PDGF-R activity); format: cell-based
# T1 construct: U1242 (PDGF-β receptor); host or cells: U1242 MG glioma cells
# Procedure: as §1, with “After destaining in several distilled water rinses, the membrane was soaked overnight in blocking buffer containing 5% milk in Tris-buffered saline, 0.05% Tween 20.” left out
# PDGF-R activity, C6 SRB, and in vivo efficacy were measured using the procedures described in the appendices above.
smiles,measurement,setting,value
Cc1cc2ncc(-c3ccccc3)nc2cc1C [Compound G13],pIC50,[1],5.82
same,pIC50,[2],5.82
